In one assay the test system is HT29 cells. As to the kind of experiment: Mitosis inhibition assay (MIA), checkpoint abrogation after etoposide. The assay is classed as cell-based. The conditions noted are these: Homo sapiens, HT-29, HT29 cells, etoposide 50 μM 1 hour, then compound with nocodazole 100 ng/mL, 21 hours; read-out: MIA IC50 (concentration required to allow 50% of cells to enter mitosis). Here is the method:
Checkpoint abrogation by CHK1 kinase function inhibitors in combination with genotoxic agents was assessed using a europium based ELISA assay designed to quantify the number of cells trapped in mitosis after treatment with a genotoxic agent (to induce G2 arrest) followed by a test compound in combination with nocodazole to abrogate this arrest.
HT29 cells were seeded at 10^4 cells per well into 96 well plates in a volume of 160 μL and left to attach for 36 hours. Etoposide (10 mM stock in DMSO) was diluted in medium to 250 μM and then 40 μL was added to appropriate wells to give a final concentration of 50 μM and incubated for 1 hour. This treatment had previously been optimised to induce a G2 arrest in 80% of cells 16 hours following treatment. After genotoxic drug exposure, the medium was removed and replaced with fresh medium (160 μL). Cells were either untreated (untreated control or etoposide pre-treatment alone), exposed to nocodazole following etoposide pre-treatment or nocodazole alone (100 ng/mL final concentration), or exposed to increasing concentrations of test compound (200 μM-0.01 nM final concentration) in combination with nocodazole (100 ng/mL final concentration). Test compounds were added in 40 μL using quadruplicate wells for each dose. […] Europium emissions were counted on a Wallac, Victor^2 counter (Perkin-Elmer, Bucks UK). […]

Assay [1] relates to HT29 colon carcinoma cells. As to the kind of experiment: Cytotoxicity assay (SRB). The settings on record: Homo sapiens, HT-29, 96 h, read-out: SRB IC50 (concentration required to inhibit growth by 50%). The assay is classed as cell-based. Here is the method: HT29 colon carcinoma cells were obtained from ATCC (Rockville, Md., USA). Cells were grown in DMEM supplemented with 10% foetal calf serum and containing L-glutamine 5 mM, glucose, penicillin, and streptomycin. Cells were grown at 37° C. in a dry 5% CO2 atmosphere. Cytotoxicity assays were carried out in 96-well plates using quadruplicate wells for each dose. Cells were seeded at 1.6×10^3 per well in 160 μL medium and were allowed to attach for 36 hours prior to treatment. Test compounds were dissolved in DMSO at 10 mM and serially diluted in culture medium to 5× final concentration prior to addition in a volume of 40 μl per well. Cells were left for 4 doublings (96 hours) in the presence of the test compounds and then fixed in 10% TCA for 30 minutes, washed in water, and dried. The fixed cells were stained with Sulfurhodamine B (SRB, 0.4% in 1% acetic acid, Sigma, Dorset, UK) for 30 minutes, washed in 1% acetic acid, and dried. SRB was resolubilised in 10 mM Tris base and the OD was measured at 490 nm. Results were expressed relative to untreated controls and the concentration of compound required to inhibit growth by 50% (SRB IC50) was calculated.

The structures appear in SMILES notation.

As for `N#Cc1cnc(Nc2cc3[nH]cnc3cn2)cn1` [BB-012, 5-(1H-imidazo[4,5-c]pyridin-6-ylamino)pyrazine-2-carbonitrile], the results for the IC50 (in the assay on HT29 cells; in assay [1]) were 33 µM and 61 µM, respectively.

The values are drawn from patent US8530468B2 (Cancer Research Technology Limited, priority 2008, dated 2013).
